We go through two compounds from patent US12115208B2, “Small-molecule adjuvants for antibiotics to address antibiotic resistance” (HIGH POINT UNIVERSITY, priority 2017, dated 2024).

For this assay, the system named is β-lactamase, MRSA ATCC 43300. The assay can be described thus: Whole cell nitrocefin hydrolysis assay. To be noted: intact MRSA 43300 cells. In kind it is cell-based, Staphylococcus aureus.

Turning to `Cc1onc(-c2ccccc2)c1C(=O)N[C@@H]1C(=O)N2[C@@H]1SC(C)(C)[C@@H]2C(=O)O` [Oxacillin], where the note is “oxacillin alone (induction)”, the “nitrocefin hydrolysis (absorbance at 486 nm)” value was “increased levels of nitrocefin hydrolysis”.
For `Clc1ccc2c(c1)C(N1CCNCC1)=Nc1ccccc1O2` [Amoxapine, 2-chloro-11-(1-piperazinyl)dibenz[b,f][1,4]oxazepine], the “nitrocefin hydrolysis (absorbance at 486 nm)” value (amoxapine + oxacillin versus oxacillin alone) is on record as “markedly less absorbance”.
